By UniProt entry, the sequences of proteins in these tests, tags left out.
UniProt Q9H8M2, whole entry: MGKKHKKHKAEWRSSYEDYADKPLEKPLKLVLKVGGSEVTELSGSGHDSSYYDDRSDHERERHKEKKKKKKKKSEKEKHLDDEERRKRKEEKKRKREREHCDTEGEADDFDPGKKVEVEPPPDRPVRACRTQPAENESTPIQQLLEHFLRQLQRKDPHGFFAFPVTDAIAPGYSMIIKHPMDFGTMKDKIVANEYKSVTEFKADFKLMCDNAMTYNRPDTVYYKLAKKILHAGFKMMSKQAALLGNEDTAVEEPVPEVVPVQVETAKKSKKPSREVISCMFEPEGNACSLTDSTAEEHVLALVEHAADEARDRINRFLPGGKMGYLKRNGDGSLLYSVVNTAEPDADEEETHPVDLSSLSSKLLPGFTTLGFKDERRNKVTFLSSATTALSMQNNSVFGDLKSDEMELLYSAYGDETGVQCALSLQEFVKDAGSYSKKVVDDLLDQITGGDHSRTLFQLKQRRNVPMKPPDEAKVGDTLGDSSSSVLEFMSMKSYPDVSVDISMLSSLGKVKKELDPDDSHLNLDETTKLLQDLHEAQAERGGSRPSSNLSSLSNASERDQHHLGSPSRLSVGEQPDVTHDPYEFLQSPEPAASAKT

In US20250085300A1, “STABILITY-ENHANCING COMPOSITIONS AND METHODS OF PREPARING COMPOUNDS” (FOGHORN THERAPEUTICS INC., priority 2021, published 2025):

Experiments:
BRD9 [1] = biological target: T1, BRD9 (Homo sapiens, UniProt Q9H8M2); test: Pharmacodynamic BRD9 western blot in SYO-1 xenograft model (Example 13); settings: for pharmacodynamic activity assessed by BRD9 protein level (western blot): single i.v. dose (Table 6)
[2] = Interconversion between Enantiomer 1 and Enantiomer 2 in cell medium; settings: 0.2 μM, cell medium 37° C.; for Mean peak area ratio of Enantiomer 1 over Enantiomer 2 peak area ratio: Enantiomer 2 dosing; for Mean peak area ratio of Enantiomer 2 over Enantiomer 1 peak area ratio: Enantiomer 1 dosing
BRD9 [3] = biological target: T1, BRD9; test: BRD9 degradation by western blot in SYO-1 cells (Example 12); settings: SYO-1, 1 or 6 hours

Row | SMILES | time after a single dose for which BRD9 was degraded (BRD9 [1]; single i.v. dose) | pharmacodynamic activity assessed by BRD9 protein level (western blot) (BRD9 [1]) | Mean peak area ratio of Enantiomer 1 over Enantiomer 2 peak area ratio ([2]; 0 h) | Mean peak area ratio of Enantiomer 1 over Enantiomer 2 peak area ratio ([2]; 0.5 h) | Mean peak area ratio of Enantiomer 1 over Enantiomer 2 peak area ratio ([2]; 6 h) | BRD9 degradation compared with racemic compound D1 (BRD9 [3]) | Mean peak area ratio of Enantiomer 2 over Enantiomer 1 peak area ratio ([2]; 0 h) | Mean peak area ratio of Enantiomer 2 over Enantiomer 1 peak area ratio ([2]; 0.5 h)
1 | COc1cc(-c2cn(C)c(=O)c3cnc(N4CCC4)cc23)cc(OC)c1CN1CCC(CN2CCC3(CC2)CN(c2ccc4c(c2)C(=O)N(C2CCC(=O)NC2=O)C4)C3)CC1 (single isomer, unassigned) | up to 72 hours | significant activity | 0.01 | 0.06 | 0.60 | slightly better than its racemic parent compound D1 in degrading BRD9 but overall comparable |  | 
2 | COc1cc(-c2cn(C)c(=O)c3cnc(N4CCC4)cc23)cc(OC)c1CN1CCC(CN2CCC3(CC2)CN(c2ccc4c(c2)C(=O)N([C@@H]2CCC(=O)NC2=O)C4)C3)CC1 (single isomer, unassigned) |  | inactive and did not degrade BRD9 protein |  |  |  |  | 0.0 | 0.0
